{"source": "patent US20250073222A1", "about": "“METHODS FOR THE TREATMENT AND PREVENTION OF NON-VIRAL TICK-BORNE DISEASES AND SYMPTOMS THEREOF” (60 DEGREES PHARMACEUTICALS LLC, priority 2023, published 2025)", "origin": "cited, not measured here", "tested_on": "Babesia microti", "settings": "daily administration, Mongolian jirds not reported to be immunocompromised; cited from earlier work", "data": [{"compound": "COc1cc(NC(C)CCCN)c2ncccc2c1", "note": "(stereo not shown) [primaquine]", "values": [{"measurement": "effect against Babesia microti", "result": "only suppressive"}]}]}
